Patent US6329137A (priority 2000, dated 2001)

Amino acid sequences for entries named in this document (tags omitted). A change or cut given only in a name is not applied to a line headed by its entry.
UniProt P18031: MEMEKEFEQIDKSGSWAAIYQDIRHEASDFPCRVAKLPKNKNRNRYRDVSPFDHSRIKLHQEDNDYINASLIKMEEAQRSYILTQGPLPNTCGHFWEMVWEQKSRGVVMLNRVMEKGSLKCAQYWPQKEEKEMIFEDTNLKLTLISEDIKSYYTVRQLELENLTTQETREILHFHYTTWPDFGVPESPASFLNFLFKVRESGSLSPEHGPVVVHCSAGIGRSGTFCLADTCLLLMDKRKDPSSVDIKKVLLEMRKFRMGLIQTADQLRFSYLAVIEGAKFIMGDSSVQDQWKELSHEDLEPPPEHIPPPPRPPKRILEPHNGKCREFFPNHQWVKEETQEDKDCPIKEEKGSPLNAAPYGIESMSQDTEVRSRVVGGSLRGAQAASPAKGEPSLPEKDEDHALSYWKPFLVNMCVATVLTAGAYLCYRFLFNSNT

Tests used:
PTP1B-FL = PTP1B-FL (Homo sapiens, UniProt P18031); details: PTP1B expressed within sf9 cells
[1] = tested on: PTPs (PTP1B-FL, CD45-cat and CD45-FL); test: Intact sf9 cell assay, expressed PTPs taken together, pNPP hydrolysis; type: cell-based; details: intact sf9 cells, 10 mM pNPP
CD45 = CD45 expressed within sf9 cells

SMILES: O=[As]c1ccccc1 (stereo not shown)
- inhibition of PTP1B in words (PTP1B-FL): non-potent, non-selective inhibitor
- potency and selectivity in words [1]: limited potency and selectivity
- IC50 ([1]; read-out: IC50 values in the range of, individual PTPs not specified, 15 min preincubation): 7 to 16 µM
- inhibition of CD45 in words (CD45): non-potent, non-selective inhibitor
